Target: Mu-type opioid receptor (Homo sapiens, UniProt P35372)
Assay: Inhibition of mu opioid receptor

Chains of the proteins cited; added tags and fusions are not shown.
UniProt P35372, whole entry: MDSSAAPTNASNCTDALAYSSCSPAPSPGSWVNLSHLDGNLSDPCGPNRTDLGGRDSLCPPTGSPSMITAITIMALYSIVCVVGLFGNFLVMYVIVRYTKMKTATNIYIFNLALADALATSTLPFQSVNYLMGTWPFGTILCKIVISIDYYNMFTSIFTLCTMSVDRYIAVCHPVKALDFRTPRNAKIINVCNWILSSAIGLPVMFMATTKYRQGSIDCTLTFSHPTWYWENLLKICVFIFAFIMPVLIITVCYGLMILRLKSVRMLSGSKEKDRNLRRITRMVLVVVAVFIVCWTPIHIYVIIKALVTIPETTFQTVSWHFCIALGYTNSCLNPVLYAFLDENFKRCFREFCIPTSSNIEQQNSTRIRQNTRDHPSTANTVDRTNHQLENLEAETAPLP

## CN(C)C[C@H]1CCCC[C@]1(O)c1cccc(O)c1 [O-DESMETHYL TRAMADOL]
  IC50: 47 nM
